Reference: patent EP4821493A1, “PHARMACEUTICAL COMPOSITION FOR TREATING CANCER COMPRISING SIMULTANEOUS INHIBITOR OF HISTONE DEACETYLASE 6 AND HISTONE DEACETYLASE 10” (dated 2026)

Columns and labels:
[1] = tested on: M2 macrophages; assay: M2 macrophage modulation, morphological changes; conditions: THP-1-derived M2 macrophages, 48 hrs
[2] = tested on: CD206; assay: M2 macrophage modulation (RT-PCR; CD206); conditions: 48 hrs
[3] = tested on: mouse MSS colorectal cancer cell line CT26; assay: Animal experiment, CT26 subcutaneous tumors: tumor volume and weight; conditions: Bufexamac alone 50 mg/kg, daily intraperitoneal, vs control group
[4] = tested on: PD-L1; assay: PD-L1 expression by qRT-PCR in the mouse MSS CRC cell line; conditions: mouse MSS CRC cell line CT26, 5 µM, vs control group, GAPDH control gene
[5] = Animal experiment: mouse body weight; conditions: CT26 tumor-bearing BALB/c mice, 50 mg/kg daily intraperitoneal
[6] = tested on: bone marrow cells; assay: Analysis of bone marrow cells by flow cytometry (FACS)
[7] = tested on: PD-L1; assay: PD-L1 expression by qRT-PCR in the human MSS CRC cell line; conditions: human MSS CRC cell line SW620, 5 µM, vs control group, GAPDH control gene
[8] = tested on: CT26 colorectal cancer cell line; assay: IC50 measurement by WST assay; conditions: CT26, 1×10^4 cells, 72 hrs, concentration at which half of the cells died
[9] = tested on: HDAC; assay: HDAC inhibitory effect (histone acetylation; Western blot); conditions: CT26, Bufexamac 10 µM, 50 µM, 48 hrs, vs control group

Row | IC50 [8] | SMILES | morphological changes in M2 macrophages ([1]; 4 µM) | RNA expression of CD206, an M2 macrophage marker ([2]; THP-1-derived M2 macrophages, 4 µM) | tumor volume [3] | tumor weight [3] | morphological changes in M2 macrophages ([1]; 50 µM) | mRNA expression of PD-L1 [4] | body weight of the mice [5] | RNA expression of CD206, an M2 macrophage marker ([2]; THP-1-derived M2 macrophages, 5, 10, 50 µM) | M2 macrophages [6] | myeloid-derived suppressor cells (MDSCs) [6] | M1 macrophages ([6]; dual inhibitor administered alone) | mRNA expression of PD-L1 [7] | degree of H3K9 acetylation [9]
1 | – | CCCCN(Cc1ccc(C(=O)NO)cc1)C(=O)Nc1ccccc1 | round shape similar to M0 macrophages | decreased | – | – | – | – | – | – | – | – | – | – | –
2 | 107 µM | CCCCOc1ccc(CC(=O)NO)cc1 | – | – | no significant change | no significant change | round shape similar to M0 macrophages | statistically significantly increased | not reduced | decreased | no change | no change | increase compared with other groups | statistically significantly increased | weak, but was confirmed to be increased compared with the control group
